Literature values, collected in patent publication US11432959B2, “Porous structures for extended release drug delivery devices” (ForSight Vision4, Inc., priority 2015, dated 2022).

Settings: bovine serum albumin in water at 20° C. (Molokhia et al, Exp Eye Res 2008)

For bovine serum albumin [BSA], which “Diffusion coefficient (D)” value is on record?
The value was 6.1 e-7 cm^2/s.
